## Yeast mating assay B: variants of the scFv Ab-14

Source: Li et al. 2023 (doi:10.1038/s41467-023-39022-2), MIT Lincoln Laboratory and A-Alpha Bio; data file from the FLAb repository.

Binding partner: SARS-CoV-2 spike HR2 peptide, sequence PDVDLGDISGINAS.

Each scFv is VH, a 15-residue (Gly4Ser)3 linker, VL, as in the parent Ab-14, and differs from it in the CDRs of the light chain only.
VH: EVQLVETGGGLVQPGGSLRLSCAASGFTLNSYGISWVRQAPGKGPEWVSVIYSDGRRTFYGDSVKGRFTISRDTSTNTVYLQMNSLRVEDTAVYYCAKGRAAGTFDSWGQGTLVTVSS
VL: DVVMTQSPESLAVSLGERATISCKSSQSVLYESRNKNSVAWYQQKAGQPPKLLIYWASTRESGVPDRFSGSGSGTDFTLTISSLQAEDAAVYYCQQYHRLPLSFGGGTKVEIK

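The parent was found by panning a naive human phage display library on the peptide. The variants were designed computationally from a first round of random CDR variants and then made and measured. Their group label is 14L_GP_Gibbs (GP: Gaussian process model; Gibbs: Gibbs sampling; a sequence that several methods proposed may carry one label only). The scFvs were displayed on barcoded MATa yeast, the peptide on MATalpha yeast. Binding brings cells together so that they mate, and sequencing counts the barcode pairs among the diploids. Read counts were normalised to the haploid input and turned into Kd by a linear fit to BCL2-family pairs of known affinity, for each replicate. There are six technical replicates.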

Variants are written as CDR1, CDR2 and CDR3 of the light chain (limits as in the source). Parent: KSSQSVLYESRNKNSVA, WASTRES, QQYHRLPLS. Numbers give log10(Kd / nM), so 0 is 1 nM and 3 is 1 µM. Smaller is tighter. Replicates are averaged; those with no signal do not enter the mean. Values of this round are not directly comparable with the first-round values of the same sequences. Nonspecific signal, from three strains lacking the peptide, appeared in 4% of pairings of all light chain designs, centred on 2.64 (5% of these signals below 1.59); values are not corrected for it. The control count says in how many pairings with the empty strains this scFv gave a signal, with their mean in brackets. In the paper, a design with two or fewer of six values counts as a poor binder.

| # | CDR-L1 | CDR-L2 | CDR-L3 | log10 Kd, replicates | log10 Kd (nM), mean | control signals |
|---|---|---|---|---|---|---|
| 1 | KLQMLELYEGRWKNSVA | SASTRES | QQYHRLPLS | 0.90 / 0.80 / 0.86 / 0.76 / 0.29 / 0.64 | 0.71 | 2 of 18 (2.55) |
| 2 | KLQMSEGYESRNKNSVA | MASTRCD | QQYHRLPLS | -0.31 / -0.41 / -0.19 / 0.14 / -0.07 / 0.67 | -0.03 | 0 of 18 |
| 3 | KLPQSWLYESQNSNSVA | HASQRMD | QQYHRLPLS | 0.27 / 0.02 / 0.12 / 0.04 / 0.03 / 0.11 | 0.10 | 1 of 18 (4.67) |
| 4 | KISQSWLYESRNKNSIA | NANQREQ | QQYHRLPLS | -0.35 / -0.54 / -0.35 / -0.33 / -0.67 / -0.33 | -0.43 | 0 of 18 |
| 5 | KFQQSDPYESRNKNSVA | EASTRSS | QQYHRLPLS | -0.06 / 0.19 / 0.19 / -0.05 / 0.03 / 0.35 | 0.11 | 3 of 18 (1.60) |
| 6 | KLSQSWLYLSRNANSVA | NASQRED | QQYHRLPLS | -0.34 / -0.44 / -0.55 / -0.59 / -0.57 / -0.41 | -0.49 | 5 of 18 (2.99) |
| 7 | KVSQSWQYGSRNKNSVA | HASQRES | QQYHRLPLS | 0.86 / 0.64 / 0.77 / 0.81 / 0.92 / 0.98 | 0.83 | 2 of 18 (3.34) |
| 8 | KIHQSVLYEDRNINSVA | NASQRYS | QAYHRLPLS | 0.67 / 0.12 / 0.43 / 0.35 / 0.49 / 0.30 | 0.39 | 1 of 18 (2.59) |
| 9 | KLSQSQWYESRNSNSVA | NASNRES | QQYHRLPLS | 0.07 / -0.15 / -0.44 / -0.35 / -0.14 / -0.05 | -0.18 | 1 of 18 (1.76) |
| 10 | KLPQSQLYESRNKNQVA | SASTREM | QQYHRLPLS | 0.04 / 0.03 / -0.09 / -0.24 / -0.10 / -0.05 | -0.07 | 2 of 18 (2.74) |
| 11 | KSQMSWEYESRNSNSVA | QASTREL | QQYHRLPLI | 0.78 / 0.35 / 0.11 / 0.26 / 0.17 / 0.30 | 0.33 | 1 of 18 (2.22) |
| 12 | KLSQSVGYQSRNKNSVA | HASTRED | QQYHRLPLS | 0.21 / -0.09 / -0.23 / 0.05 / 0.08 / 0.10 | 0.02 | 1 of 18 (1.44) |
| 13 | LQSQSELLESRNHNSVA | QASTRMD | QQYHRLPLS | -0.08 / -0.07 / -0.15 / -0.09 / -0.12 / 0.10 | -0.07 | 0 of 18 |
| 14 | KVSWLHPYWSRNKNSVA | NASTREQ | QQYHRLPLS | 0.64 / 0.41 / 0.57 / 0.39 / 0.56 / 0.64 | 0.53 | 4 of 18 (2.96) |
| 15 | KLSQSMEYQSRNKNNVA | NASQREQ | QSYHRLPLS | 1.04 / 1.19 / 1.11 / 1.02 / 1.15 / 1.44 | 1.16 | 0 of 18 |
| 16 | KLSQSEPYESRCFNSVA | NASTRCS | QQYHRLPLS | 0.37 / 0.33 / 0.16 / 0.09 / -0.05 / 0.72 | 0.27 | 2 of 18 (1.71) |
| 17 | KLSMSHGYESRMKNSVA | EASQREE | QQYHRLPLS | -0.27 / -0.23 / -0.35 / -0.19 / -0.50 / -0.08 | -0.27 | 1 of 18 (3.82) |
| 18 | KLEPSEEEESRNKNSVA | SASTRES | QQYHRLPLS | -0.35 / -0.58 / -0.59 / -0.63 / -0.51 / -0.49 | -0.53 | 3 of 18 (2.79) |
| 19 | KLSQSHLYESRNKNSVA | EASTREQ | QQYHRLPLS | 0.16 / 0.06 / 0.01 / -0.04 / 0.14 / 0.13 | 0.07 | 4 of 18 (2.76) |
| 20 | KHSISVHGEDRNKNSVA | DASTRES | QQYHRLPLS | 0.00 / -0.03 / 0.04 / -0.09 / -0.08 / -0.11 | -0.05 | 1 of 18 (2.36) |
| 21 | KLENSNLYESRNGNSVA | NASTRES | QQYHRLPLS | -0.28 / -0.30 / -0.46 / -0.60 / -0.58 / -0.14 | -0.39 | 2 of 18 (2.17) |
| 22 | KIFQSWLYEQRNVNSVA | NASQRLD | QQYHRLPLS | 0.18 / 0.38 / 0.33 / 0.23 / 0.10 / 0.51 | 0.29 | 3 of 18 (3.15) |
| 23 | KLSQQDWYEQRNCNSVA | QASVREQ | QQYHRLPLS | 0.40 / 0.03 / -0.06 / 0.08 / 0.23 / 0.03 | 0.12 | 1 of 18 (3.18) |
| 24 | KSSQLQDYGDRNSNSVA | NASQREH | QQYHRLPLS | 0.42 / 0.37 / -0.01 / 0.42 / 0.30 / 0.51 | 0.33 | 0 of 18 |
| 25 | KLSQSVLYQSRNKNNVA | NAQTRMS | QQYHRLPLS | -0.20 / -0.37 / -0.31 / -0.39 / -0.32 / -0.08 | -0.28 | 1 of 18 (2.47) |
| 26 | KHSQSVDYESRNKAQVA | DASTRMS | QQYHRLPLS | 0.59 / 0.71 / 0.64 / 0.75 / 0.53 / 0.59 | 0.64 | 0 of 18 |
| 27 | KLYQSEWYESRMCNSVA | NASVREC | QQYHRLPLS | 1.63 / 1.23 / 1.67 / 1.22 / 1.76 / 1.59 | 1.52 | 4 of 18 (2.71) |
| 28 | KFEMLWDYKDRNLNSVA | NASTRES | QQYHRLPLS | 0.33 / 0.41 / 0.43 / 0.30 / 0.21 / 0.44 | 0.35 | 3 of 18 (3.05) |
| 29 | KLQGSVLYESRNKNSVA | GASQREK | QQYHRLPLS | 0.11 / 0.06 / -0.05 / -0.13 / -0.09 / 0.13 | 0.00 | 1 of 18 (3.22) |
| 30 | KVMQLELYEQRNANNVA | NGSTRES | QQYHRLPLS | -0.07 / -0.31 / -0.24 / -0.29 / -0.26 / -0.11 | -0.21 | 0 of 18 |
| 31 | KLAGSQLYESRNKNSVA | NASTRES | QQYRRLPLS | -0.17 / -0.01 / 0.26 / 0.86 / -0.56 / 0.28 | 0.11 | 0 of 18 |

Repeated from above, the 3 best binders with a signal in all replicates:

| CDR-L1 | CDR-L2 | CDR-L3 | log10 Kd, replicates | log10 Kd (nM), mean | control signals |
|---|---|---|---|---|---|
| KLEPSEEEESRNKNSVA | SASTRES | QQYHRLPLS | -0.35 / -0.58 / -0.59 / -0.63 / -0.51 / -0.49 | -0.53 | 3 of 18 (2.79) |
| KLSQSWLYLSRNANSVA | NASQRED | QQYHRLPLS | -0.34 / -0.44 / -0.55 / -0.59 / -0.57 / -0.41 | -0.49 | 5 of 18 (2.99) |
| KISQSWLYESRNKNSIA | NANQREQ | QQYHRLPLS | -0.35 / -0.54 / -0.35 / -0.33 / -0.67 / -0.33 | -0.43 | 0 of 18 |